Earlier results as cited in paper PMC3913854 (Investigational New Drugs, 2013).

Experiments:
refractory HER2+ disease = conditions: heavily pretreated patients, N = 110; cited from earlier work
HER2+ patients = conditions: N = 991, interim analysis, cited from earlier work

trastuzumab emtansine: investigational HER2-targeted agent
clinical benefit rate (refractory HER2+ disease): 48%
overall response rate (refractory HER2+ disease): 35%
progression-free survival (HER2+ patients; P < .0001): 9.6 months
serious AEs versus lapatinib and capecitabine (HER2+ patients): fewer serious AEs
